Assay results: patent publication US20030139468A1, “Amiodarone solutions suitable for intravenous administration” (American Home Products Corporation, priority 2002, published 2003)

Settings: excess amiodarone in 10 ml of water at room temperature, rotated 24 hours at 50 rpm, filtered and assayed

CCCCc1oc2ccccc2c1C(=O)c1cc(I)c(OCCN(CC)CC)c(I)c1 [amiodarone, 2-n-butyl-3-(3,5-diiodo-4-(β-N-diethylaminoethoxy)benzoyl) benzofuran]
amiodarone contained in the solution: 0.9 mg/mL
